The values below are quoted from earlier work in US5935597A, “Drug delivery devices and methods for treatment of viral and microbial infections and wasting syndromes” (Cryopreservation Technologies CC, priority 1995, dated 1999).

The conditions of the series: cited from earlier work.

Take `CN(C)C=O` [DMF, N,N'-dimethylformamide]: the “unchanged DMF in urine” value (fraction of administered dose) was “small fraction of an administered dose”. Where the note is “in vivo”, the excretion result is “excretion occurs principally in the urine” and the metabolism result is given as “rapidly metabolized, mainly in the liver”. For the same compound, the absorption result (through the skin, by inhalation, oral ingestion) was “readily absorbed through the skin, by inhalation, and upon oral ingestion”.
